Amino acid sequences for entries named in this document (tags omitted). Residues count along the entry.
UniProt P35354, 18-604: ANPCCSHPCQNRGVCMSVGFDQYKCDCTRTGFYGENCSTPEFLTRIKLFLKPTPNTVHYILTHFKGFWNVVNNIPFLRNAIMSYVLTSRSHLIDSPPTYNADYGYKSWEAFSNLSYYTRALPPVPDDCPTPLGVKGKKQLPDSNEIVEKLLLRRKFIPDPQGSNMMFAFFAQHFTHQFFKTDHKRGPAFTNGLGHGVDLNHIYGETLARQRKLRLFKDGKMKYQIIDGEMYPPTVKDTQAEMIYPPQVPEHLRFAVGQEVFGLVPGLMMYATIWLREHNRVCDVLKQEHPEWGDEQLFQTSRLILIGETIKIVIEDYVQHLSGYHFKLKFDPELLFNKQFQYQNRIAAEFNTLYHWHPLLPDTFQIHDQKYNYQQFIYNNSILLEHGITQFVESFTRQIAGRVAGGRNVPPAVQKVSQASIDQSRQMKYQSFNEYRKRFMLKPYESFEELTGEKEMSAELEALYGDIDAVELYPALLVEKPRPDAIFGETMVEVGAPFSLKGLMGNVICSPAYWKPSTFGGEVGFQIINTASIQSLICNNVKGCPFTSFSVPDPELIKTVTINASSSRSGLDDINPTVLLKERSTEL
UniProt P97612, whole entry: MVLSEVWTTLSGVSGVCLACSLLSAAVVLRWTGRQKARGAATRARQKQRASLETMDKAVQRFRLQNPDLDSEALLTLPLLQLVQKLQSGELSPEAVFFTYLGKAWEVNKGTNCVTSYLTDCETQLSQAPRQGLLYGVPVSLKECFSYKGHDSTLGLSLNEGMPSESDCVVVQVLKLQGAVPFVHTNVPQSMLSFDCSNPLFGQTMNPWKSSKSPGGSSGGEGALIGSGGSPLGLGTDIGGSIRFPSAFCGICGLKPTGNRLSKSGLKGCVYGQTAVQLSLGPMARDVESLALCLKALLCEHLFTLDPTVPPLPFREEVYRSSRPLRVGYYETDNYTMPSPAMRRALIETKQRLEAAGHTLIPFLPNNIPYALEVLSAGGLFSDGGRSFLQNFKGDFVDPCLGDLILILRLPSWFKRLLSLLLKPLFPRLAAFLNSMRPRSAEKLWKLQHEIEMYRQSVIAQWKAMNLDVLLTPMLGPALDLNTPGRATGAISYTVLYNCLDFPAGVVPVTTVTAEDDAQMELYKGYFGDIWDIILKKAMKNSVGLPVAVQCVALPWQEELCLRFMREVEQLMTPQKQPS
UniProt O00519, whole entry: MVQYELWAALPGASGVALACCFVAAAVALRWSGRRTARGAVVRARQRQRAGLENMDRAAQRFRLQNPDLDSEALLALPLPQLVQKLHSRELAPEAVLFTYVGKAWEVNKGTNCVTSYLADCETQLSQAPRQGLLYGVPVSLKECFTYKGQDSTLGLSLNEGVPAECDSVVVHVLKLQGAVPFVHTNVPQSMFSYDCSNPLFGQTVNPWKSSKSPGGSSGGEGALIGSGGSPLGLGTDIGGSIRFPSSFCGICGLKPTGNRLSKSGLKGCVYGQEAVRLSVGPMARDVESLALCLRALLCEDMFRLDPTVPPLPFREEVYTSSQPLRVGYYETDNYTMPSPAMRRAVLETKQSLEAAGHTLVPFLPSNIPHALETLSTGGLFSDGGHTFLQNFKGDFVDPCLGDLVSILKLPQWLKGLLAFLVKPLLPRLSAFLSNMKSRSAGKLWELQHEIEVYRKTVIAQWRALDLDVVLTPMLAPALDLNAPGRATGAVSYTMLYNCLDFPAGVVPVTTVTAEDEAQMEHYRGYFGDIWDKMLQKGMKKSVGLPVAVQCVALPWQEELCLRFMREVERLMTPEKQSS

In US9630914B2, “Multitarget FAAH and COX inhibitors and therapeutical uses thereof” (FONDAZIONE ISTITUTO ITALIANO DI TECNOLOGIA, priority 2012, dated 2017):

Columns and labels:
Assay type in all cases: biochemical
human recombinant COX-2 = human recombinant COX-2 (Homo sapiens (Human), UniProt P35354); test: In vitro COX assay (COX Inhibitor Screening Assay Kit), COX-2
Experimental: COX activity was measured using a commercial kit (COX Inhibitor Screening Assay Kit—Cayman Chemical N. 560131) which includes both ovine COX-1 and human recombinant COX-2 enzymes. Inhibitors were pre-incubated with either ovine COX-1 or human COX-2 in order to screen isozyme-specific inhibition. Differently than described in the kit protocol, the reaction was carried out in the presence of 5 μM arachidonic acid while for the blank sample (no activity) the two enzymes were inactivated for 40 minutes at 100° C. It was then measured the amount of PGF2α produced by reduction with SnCl2 of COX-derived PGH2, via enzyme immunoassay (EIA) using a PG-specific antibody and competing with a PG-acetylcholinesterase conjugate.
Absorbance was measured at 412 nm with a Tecan Infinite M200 plate reader and data were processed according to manufacturer's instructions.
(§1) The median inhibitory concentrations (IC50) were determined by non-linear regression analysis of the Log [concentration]/response curves generated with mean replicate values using a four parameter Hill equation curve fitting with GraphPad Prism 5 (GraphPad Software Inc., CA-USA).

Rat FAAH = Rat FAAH (Rattus norvegicus (Rat), UniProt P97612); test: In vitro rat FAAH radiometric assay; details: rat brain homogenate; means of ≧3 experiments in duplicate
Experimental: In Vitro Rat FAAH Radiometric Assay
Rat FAAH was prepared from male Sprague Dawley rat brains, homogenized in a potter in 20 mM of Tris HCl pH 7.4, 0.32 M sucrose.
After 10 minutes of pre-incubation with test compounds, the reaction was started by adding of 50 μL of substrate and incubating for 30 min at 37° C. The substrate was prepared in assay buffer in order to achieve the final concentration of 1 μM arachidonoyl ethanolamide (Cayman Chemical N. 90050) and 0.6 nM anandamide [ethanolamine-1-^3H](American Radiolabeled Chemicals Inc., ART. 0626, conc. 1 mCi/mL, S.A. 60 Ci/mmol). The reaction was stopped by adding cold 1:1 CHCl3/MeOH. After 10 minutes of centrifugation (845×g at 4° C.) 600 μL of aqueous phase were transferred into scintillation vials previously filled with 3 mL of scintillation fluid (Ultima Gold™, Perkin Elmer Inc., Cat. 6013329). Radioactivity was measured by liquid scintillation counting (MicroBeta2 LumiJET Perkin Elmer Inc.).
as §1

human FAAH-1 = human FAAH-1 (Homo sapiens (Human), UniProt O00519); test: In vitro human FAAH fluorescent assay; details: human FAAH-1 membrane preparation from HEK-293; means of ≧3 experiments
Experimental: In Vitro Human FAAH Fluorescent Assay
Human recombinant FAAH was obtained from a HEK-293 FAAH-1 overexpressing stable cell line. Cells were grown in DMEM medium containing 10% FBS, 1% pen/strep, 1% glutamine and 500 μg/mL G418. To obtain membrane preparation cells were scraped off with cold phosphate-buffered saline (PBS) and collected by centrifugation (500×g, 10 minutes, 4° C.); the cell pellet was re-suspended in 20 mM Tris-HCl pH 7.4, 0.32 M sucrose, disrupted by sonication (10 pulses, 5 times) and centrifuged (800×g, 15 minutes, 4° C.); the collected supernatant was centrifuged at 105,000×g for 1 h at 4° C. and the pellet was re-suspended in PBS.
The fluorescent assay to measure FAAH activity was performed in 96 wells black plates: 2.5 μg of human FAAH-1 membrane preparation were pre-incubated for 50 minutes at 37° C., in 180 μL of assay buffer (50 mM TrisHCl pH 7.4, 0.05% Fatty acid-free BSA) with 10 μL of inhibitor or 10 μL DMSO to measure FAAH total activity. The background (no activity) samples were prepared using 180 μL of assay buffer without human FAAH-1 and 10 μL of DMSO. […] The reaction was carried out for 30 minutes at 37° C. and fluorescence was measured with a Tecan Infinite M200 nanoquant plate reader (excitation wavelength 350 nm/emission wavelength 460 nm). […]

[1] = 5 μM arachidonic acid, read-out: human COX-2 IC50

Compound | IC50 (human recombinant COX-2; [1]) [nM] | IC50 (Rat FAAH) [nM] | IC50 (human FAAH-1) [nM] | IC50 (human recombinant COX-2; Table 2, read-out: COX-2 IC50) [nM]
CCCCCCNC(=O)Oc1cccc(-c2ccc(C(C)C(=O)O)cc2F)c1 (single isomer, unassigned; (+)) [Example 20, (+)-2-[3-fluoro-4-[3-(hexylcarbamoyloxy)phenyl]phenyl]propanoic acid] | 10 | 9.4 | – | –
CCCCCCNC(=O)Oc1cccc(-c2ccc(C(C)C(=O)O)cc2F)c1 (single isomer, unassigned; (-)) [Example 19, (−)-2-[3-fluoro-4-[3-(hexylcarbamoyloxy)phenyl]phenyl]propanoic acid] | 54000 | 9.9 | 8.6 | –
CCCCCCNC(=O)Oc1cccc(-c2ccc(C(C)C(=O)O)cc2F)c1 (stereo not drawn) [Example 12, 2-[3-fluoro-4-[3-(hexylcarbamoyloxy)phenyl]phenyl]propanoic acid] | – | – | – | 430

Like-named read-outs stand apart in the source and are kept apart here.
